Results: patent publication US4868203A, “Bacterial substance and pharmaceutical composition thereof” (Kabushikikaisha Ueno Seiyaku Oyo Kenkyujo, priority 1986, dated 1989)

Tested on: rats (Slc-ddY, male, 5 weeks old)
Experiment: Acute toxicity (Test Example 7)
Type: in vivo
Conditions: one week
Description: Groups of two rats (Slc-ddY, male, 5 weeks old) were used as test animals.
The test animals orally received 1,000, 500, 250, 125 or 62.5 mg/kg of the test substance suspended in an aqueous solution of 5% gum arabic or subcutaneously injected with 500, 250, 125 or 62.5 mg/kg of the test substance suspended in sterilized injectable distilled water. One week after administration, general conditions and weight of the animals were examined. On the final day, the animals were sacrificed and their organs including lymph nodes were observed.

[1] = s.c., 500 to 6.25 mg/kg (so in the source)

Compound: CC=CC=CC=CC(=O)NC(CC(=O)NC(C(=O)C1C(=O)NC(=O)C1C)C(C)C)c1ccccc1 (stereo not shown) [UFC-N11]
- general physical conditions and organs at the sacrifice (oral, 1000 to 62.5 mg/kg): no visible disorder was observed
- mortality (oral, 1000 to 62.5 mg/kg): the test animals did not die
- general physical conditions and organs at the sacrifice [1]: no visible disorder was observed
- mortality [1]: the test animals did not die
